Test: Antioxidant activity, pholasin ABEL chemiluminescence test, halogenated radicals
Assay type: biochemical
Experimental: To determine the capacity of Goldenrod for trapping free radicals (hydroxyls, halogenated derivatives, peroxynitrites and superoxide radicals), i.e. its antioxidant capacity, chemiluminescence tests dependent on pholasin ABEL®1 were used (Knight Scientific Limited) according to the manufacturer's instructions. Briefly, various concentrations of ingredients were incubated with pholasin, a well known photoprotein that emits light when it binds to free radicals. D-Mannitol, albumin, vitamin E and L-ascorbic acid were used as positive controls for determining the capacity of the extract for trapping hydroxyl radicals, halogenated derivatives, peroxynitrites and superoxides, respectively.
All the determinations were repeated 5 times and the mean values were determined. The antioxidant capacity of the ingredient is expressed as the percentage reduction of the luminescence peak of Pholasin observed during the assay in the presence and in the absence of the active ingredient ±SD, with the untreated control represented at 0%.

## Albumin: positive control for trapping halogenated derivatives
0.25 mg/ml
  Mean % inhibition: 64.9 ± 13.9%
0.5 mg/ml
  Mean % inhibition: 82.3 ± 8.9%
0.75 mg/ml
  Mean % inhibition: 88.5 ± 5.7%
1 mg/ml
  Mean % inhibition: 92.1 ± 3.3%
1.25 mg/ml
  Mean % inhibition: 93.9 ± 0.69%

From US10206867B2, “Alcoholic extract of aerial parts of Solidago virgaurea subsp. alpestris, method of production thereof, and cosmetic or dermatological composition containing it” (CHANEL PARFUMS BEAUTE, priority 2015, dated 2019)
